Data on one compound can be found in ChEMBL document CHEMBL4000151, “Potent Small Agonists of Protease Activated Receptor 2” (ACS Med Chem Lett, 2016).

Calls of active or inactive are those of the source. The calls are words filed in the database; no cut-off is given here.

For the assay, the target named is T1, Proteinase-activated receptor 1 (Homo sapiens) (UniProt P25116).
T1 sequence (whole entry): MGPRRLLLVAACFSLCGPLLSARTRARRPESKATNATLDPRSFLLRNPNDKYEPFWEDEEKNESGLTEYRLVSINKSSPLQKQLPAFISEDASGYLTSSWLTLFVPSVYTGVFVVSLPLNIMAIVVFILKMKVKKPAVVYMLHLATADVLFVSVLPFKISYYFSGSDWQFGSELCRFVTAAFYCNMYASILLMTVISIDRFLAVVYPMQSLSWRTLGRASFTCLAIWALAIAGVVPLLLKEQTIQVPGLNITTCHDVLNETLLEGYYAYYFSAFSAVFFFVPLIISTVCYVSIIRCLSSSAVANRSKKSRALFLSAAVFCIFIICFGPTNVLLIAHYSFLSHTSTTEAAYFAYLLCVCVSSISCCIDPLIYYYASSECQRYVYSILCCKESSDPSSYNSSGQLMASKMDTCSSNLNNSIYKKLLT
As to the kind of experiment: Agonist activity at PAR1 in 2f-LIGRLO-NH2-desensitized human PC3 cells assessed as induction of intracellular calcium release at 100 uM compound treated post desensitization by Fluo-3 AM dye based fluorescence assay. In kind it is functional, cell-based. (In general: A change in cytosolic calcium serves as a functional read-out for many receptors and channels.)

For `CC(C)C[C@H](NC(=O)[C@H](CC(C)C)NC(=O)[C@H](Cc1ccccc1)NC(=O)[C@@H](N)[C@@H](C)O)C(=O)N[C@@H](CCCNC(=N)N)C(N)=O`, the result was Active.
